Each structure is given as a SMILES string. Several values for one entry are separate records, joined by “and”; a condition that tells them apart may be missing. Equal entries are not always repeated. The list shows a part of the results, in another mix than the full data. Some results for these compounds are left out of this collection, so the calls shown say nothing about other tests. Results filed as inconclusive are left out. Activity calls are given as the source filed them. Calls come from the whole dose curve; as a rule, active = well fitted inhibition curve with a large enough effect; inconclusive = small, poorly fitted or top-dose-only effect; inactive = flat fitted curve, though single readings scatter.

By UniProt entry, the sequences of proteins in these tests, tags left out.
UniProt P08659, whole entry: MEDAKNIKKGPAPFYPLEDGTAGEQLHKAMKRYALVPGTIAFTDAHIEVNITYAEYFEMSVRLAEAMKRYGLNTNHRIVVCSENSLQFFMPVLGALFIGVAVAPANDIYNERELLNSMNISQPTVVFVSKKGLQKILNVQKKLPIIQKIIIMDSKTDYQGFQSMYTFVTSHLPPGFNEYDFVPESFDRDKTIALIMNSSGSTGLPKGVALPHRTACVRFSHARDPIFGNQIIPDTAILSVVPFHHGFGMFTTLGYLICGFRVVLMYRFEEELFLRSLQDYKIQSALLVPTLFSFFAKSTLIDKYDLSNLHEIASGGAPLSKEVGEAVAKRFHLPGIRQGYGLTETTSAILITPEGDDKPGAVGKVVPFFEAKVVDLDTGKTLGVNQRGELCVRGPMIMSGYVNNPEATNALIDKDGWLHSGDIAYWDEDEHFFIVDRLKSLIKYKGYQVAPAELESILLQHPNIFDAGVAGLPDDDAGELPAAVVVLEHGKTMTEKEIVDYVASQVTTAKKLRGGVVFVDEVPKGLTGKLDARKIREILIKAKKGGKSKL

For this experiment, the target named is Luciferin 4-monooxygenase (Photinus pyralis) (UniProt P08659). Briefly: qHTS profiling assay for firefly luciferase inhibitor/activator using purifed enzyme and Km concentrations of substrates (counterscreen for miR-21 project).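 Note: plate controls were vehicle for no effect and reference inhibitor for full effect; nearly all actives have a fitted effect of over 55% in size.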 The note with it: purified FLuc, luminescence inhibition; at 57.5 µM (top of the series). (In general: Quantitative high-throughput screening tests each substance at several concentrations.)
Turning to `Cc1cccc(C(=O)NCC2(N(C)C)CCCCC2)c1`, the activity change, negative = inhibition was inactive: 0.585%.

For the molecule `COc1cc(C(=O)NCC2(N(C)C)CCCCC2)cc(OC)c1OC`, the activity change, negative = inhibition is inactive: -0.19%.

`COc1ccc(Br)c(C(=O)NCC2(N3CCCCC3)CCCCC2)c1`: the activity change, negative = inhibition is inactive: 1.25%.

Turning to `CN(C)c1cccc(C(=O)NCC2(N(C)C)CCCCC2)c1`, the activity change, negative = inhibition was inactive: 1.88%.

As for `CC(C)Oc1ccc(C(=O)NCC2(N(C)C)CCCCC2)cc1`, the activity change, negative = inhibition was inactive: 1.2% and inactive: 0.138%.

Take `O=C(OC1CN2CCC1CC2)C(CO)(c1ccccc1)c1ccccc1` (centres undefined): the activity change, negative = inhibition is inactive: -1.03%.

For the molecule `COc1cccc(C(=O)NCC2(N3CCOCC3)CCCCC2)c1`, the activity change, negative = inhibition was inactive: -0.923%.

`CC(C)COc1ccc(C(=O)NCC2(N(C)C)CCCCC2)cc1`: the activity change, negative = inhibition was inactive: -0.37%.

For the molecule `COc1ccc(C(=O)NCC2(N(C)C)CCCCC2)cc1Cl`, the activity change, negative = inhibition was inactive: -7.1%.

Take `COc1cccc(C(=O)NCC2(N3CCCCC3)CCCCC2)c1`: the activity change, negative = inhibition is inactive: -0.0309%.

With `COc1ccc(Cl)cc1C(=O)NCC1(N(C)C)CCCCC1`, the activity change, negative = inhibition is inactive: -9.08%.

For `O=C(NCC1(N2CCCCC2)CCCCC1)c1cccc(Cl)c1`, the activity change, negative = inhibition was inactive: 1.67%.

As for `CN(C)C1(CNC(=O)c2ccc(Br)cc2)CCCCC1`, the activity change, negative = inhibition was inactive: 4.15%.

With `COc1cc(C(=O)NCC2(N(C)C)CCCCC2)c([N+](=O)[O-])cc1OC`, the activity change, negative = inhibition was inactive: 1.16%.

`C=CCN1CCN(CCOC(=O)C(O)(c2ccccc2)c2ccccc2)CC1`: the activity change, negative = inhibition was inactive: -3.9%.

Turning to `O=C(NCC1(N2CCCCC2)CCCCC1)c1cc(F)c(F)cc1Cl`, the activity change, negative = inhibition is inactive: 1.46%.

For the molecule `CCN1CCCC(OC(=O)C2(O)c3ccccc3C=Cc3ccccc32)C1` (centres undefined), the activity change, negative = inhibition is inactive: -2.55%.

For the molecule `Cc1cc(C(=O)NCC2(N3CCCCC3)CCCCC2)ccc1[N+](=O)[O-]`, the activity change, negative = inhibition is inactive: -1.29%.

On to `O=C(NCC1(N2CCCCC2)CCCCC1)c1cccc(Br)c1`, for which the activity change, negative = inhibition is inactive: 0.162%.

Consider `COc1ccc(C(=O)NCC2(N(C)C)CCCCC2)cc1`, for which the activity change, negative = inhibition is inactive: -0.571%.

As to `CCOc1cccc(C(=O)NCC2(N(C)C)CCCCC2)c1`, the activity change, negative = inhibition was inactive: -2.46%.

For the molecule `Cc1ccccc1C(=O)NCC1(N2CCCCC2)CCCCC1`, the activity change, negative = inhibition was inactive: -0.363%.

With `CN(C)C1(CNC(=O)c2ccccc2[N+](=O)[O-])CCCCC1`, the activity change, negative = inhibition is inactive: 0.629%.

In the case of `CN(C)c1ccc(C(=O)NCC2(N(C)C)CCCCC2)cc1`, the activity change, negative = inhibition was inactive: -0.984%.

For `CN(C)C1CCCC1OC(=O)C(O)(c1ccccc1)c1ccccc1` (centres undefined), the activity change, negative = inhibition is inactive: 1.03%.

Take `CCCCOc1ccccc1C(=O)NCC1(N(C)C)CCCCC1`: the activity change, negative = inhibition is inactive: -5.93%.

Regarding `CC(C)N1C(=O)CC2(CCN(CCOC(=O)C(O)(c3ccccc3)c3ccccc3)CC2)C1=O`, the activity change, negative = inhibition is inactive: -1.41%.

For `CCN(CC)CC(C)C(C)OC(=O)C(O)(c1ccccc1)c1ccccc1` (centres undefined), the activity change, negative = inhibition is inactive: 1.58%.

In the case of `CN(C)C1(CNC(=O)c2cccc(Cl)c2)CCCCC1`, the activity change, negative = inhibition was inactive: -1.01%.

Turning to `COc1cc(SC)ccc1C(=O)NCC1(N(C)C)CCCCC1`, the activity change, negative = inhibition is inactive: -4.63%.

Turning to `CN(C)C1(CNC(=O)c2ccccc2F)CCCCC1`, the activity change, negative = inhibition is inactive: -2.25%.

`Cc1ccc(C(=O)NCC2(N3CCCCC3)CCCCC2)cc1`: the activity change, negative = inhibition is inactive: 0.524%.

Regarding `O=C(NCC1(N2CCCCC2)CCCCC1)c1cc([N+](=O)[O-])ccc1Cl`, the activity change, negative = inhibition was inactive: 0.79%.

As for `CN1[C@@H]2CC[C@H]1CC(OC(=O)C(O)(c1ccccc1)c1ccccc1)C2` (some centres undefined), the activity change, negative = inhibition is inactive: 1.4%.
